This is a selection; strong and weak results do not stand in their true shares. The source made the active and inactive calls.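 The calls were made as follows: active = at least 20% inhibition of 6-phosphogluconate dehydrogenase activity; inactive = the rest.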

By UniProt entry, the sequences of proteins in these tests, tags left out.
UniProt P52209, whole entry: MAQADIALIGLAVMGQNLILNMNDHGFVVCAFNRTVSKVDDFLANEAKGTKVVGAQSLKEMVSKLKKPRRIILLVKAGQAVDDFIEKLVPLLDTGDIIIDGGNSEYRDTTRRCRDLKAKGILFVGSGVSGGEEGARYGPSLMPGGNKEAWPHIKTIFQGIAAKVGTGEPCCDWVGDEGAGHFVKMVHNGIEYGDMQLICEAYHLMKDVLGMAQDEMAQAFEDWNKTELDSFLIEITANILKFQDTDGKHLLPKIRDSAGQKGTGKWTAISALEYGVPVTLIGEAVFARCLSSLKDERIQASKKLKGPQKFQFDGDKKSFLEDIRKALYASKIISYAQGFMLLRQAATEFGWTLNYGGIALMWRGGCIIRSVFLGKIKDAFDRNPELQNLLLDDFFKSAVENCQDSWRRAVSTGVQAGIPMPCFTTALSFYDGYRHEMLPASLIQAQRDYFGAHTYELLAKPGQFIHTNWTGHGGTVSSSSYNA

The target in the assay is 6-phosphogluconate dehydrogenase, decarboxylating (Homo sapiens) (UniProt P52209). Briefly: inhibition of human phosphogluconate dehydrogenase – biochemical, recombinant enzyme, NADPH absorbance, primary screen (AID 1159550). As to conditions: recombinant 6PGD, NADPH absorbance 341 nm; at 10 µM; active compounds read high.
In the case of `CCN(CCCl)Cc1ccccc1C`, the inhibition – broadly, the drop in the measured response relative to a control, in per cent – is inactive: -4.89%.
As to `OCCSCCO`, the inhibition is inactive: -8.85%.

The values above are taken from PubChem BioAssay AID1159550 (Chen Lab, School of Medicine, Emory University, 2015).
